Bioassay records as filed in PubChem.
Most compounds without a hit are left out; they make up all but 1.2% or so of the library.
N-glyco inh: N-linked glycosylation inhibition | D54 ERlucT glycosylation luciferase reporter, 24 h; percent of 100 nM tunicamycin response | reporter increase, % at 12.5 µM | hit rate 0.23% among 360,000 | AID 588692;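 active = mean luciferase reporter signal, scaled so untreated is 0 and the glycosylation-blocking control 100, at or above a set limit in every replicate; inconclusive = mean reaches the limit but not every replicate does; inactive = mean below the limit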;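 note: luciferase carries N-glycosylation sites so blocking glycosylation raises the light; 0% = median of neutral control wells and 100% = median of 100 nM tunicamycin wells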
Statin myotox sup: protects C2C12 myotubes from simvastatin toxicity; ATP luminescence, 48 h; scaled: DMSO 0, geranylgeraniol control 100; rescue of ATP level, % at 7.49 µM; hit rate 0.78% among 330,000; AID 602340;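 active = mean ATP rescue above about 67%, or every replicate alone reaching that limit, limit read from the data, passing the limit was not always enough; inconclusive = no clear call, values can overlap the other calls; inactive = mean under the limit and some replicate under it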;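 note: myotubes were challenged with 10 µM simvastatin during compound exposure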
miR-122 sensor: inhibitors of miR-122 in Huh7 cells; Huh7 miR-122 Renilla luciferase sensor, 48 h; neutral wells = 0, positive control = 100; activation (reporter increase), % at 12.5 µM; hit rate 0.3% among 340,000;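 active = mean replicate activation score at least 90 and every replicate individually at or above 90; inconclusive = only one of the two criteria met; inactive = neither criterion met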;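 note: higher luciferase means less miR-122 activity so hits act as miR-122 inhibitors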
Yeast UUG start: modulators of start codon recognition fidelity in yeast; AID 602363; hit rate 0.13% among 350,000; activity score, % at 18.7 µM; S. cerevisiae UUG-firefly luciferase reporter, luminescence/redox ratio;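 active = replicate mean at a twofold rise or more, about +100% in these data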;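 note: firefly luciferase made from a UUG start codon reports start codon fidelity; reporter light over untreated wells divided by growth signal over untreated wells; some hits fall short of that in this replicate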
Cneo AK release: Cryptococcus neoformans lysis via adenylate kinase release | C. neoformans lysis, adenylate kinase release luminescence, 4 h; normalised: neutral wells 0, clomiphene wells 100 | lysis activity, % at 15 µM | hit rate 0.2% among 360,000;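 active = mean lysis activity across replicates of at least 80%, whatever share of replicates individually reach that level; inactive = mean lysis activity below 80%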
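Material – Cryptococcus neoformans yeast cells · Quantity – 5 × 10^6 yeast cells/mL · Buffer or medium – YPD medium · Compound – single dose · Timing – 4 h static compound exposure, 37 °C, read 1 h post-reagent · Signal – adenylate kinase release luminescence · Read-out basis – lysis from increased AK signal · Benchmarks – Clomiphene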
Active calls of the source: *; ? = inconclusive; nt = no result; ! = not active in a repeat; [ ] = dose if it differs, or a comment.

Start of the data: the first 2 compounds (preview)
1) COc1ccc(S(=O)(=O)N2CCCN(S(=O)(=O)c3ccc(OC)c(C)c3)CC2)cc1C
2) COc1ccc(S(=O)(=O)Nc2ccc(S(=O)(=O)N3CCCCC3)cc2)cc1C
compound no. | 1 | 2
N-glyco inh | 5 | -3
Statin myotox sup | 45 | 5
miR-122 sensor | -9 | 251*
Yeast UUG start | 8 | -7
Cneo AK release | 0 | 1

The listing, from the first entry:
1) COc1ccc(S(=O)(=O)N2CCCN(S(=O)(=O)c3ccc(OC)c(C)c3)CC2)cc1C
2) COc1ccc(S(=O)(=O)Nc2ccc(S(=O)(=O)N3CCCCC3)cc2)cc1C
3) CC(=O)Nc1ccc(S(=O)(=O)Nc2ccc(S(=O)(=O)N3CCCCCC3)cc2)cc1
4) COc1ccc(NC(C)=O)cc1S(=O)(=O)Nc1ccc(S(=O)(=O)N2CCCCC2)cc1
5) O=C(Nc1cccc(Cl)c1)c1ccc2c(c1)SC1=NS(=O)(=O)CCN12
compound no. | 1 | 2 | 3 | 4 | 5
N-glyco inh | 5 | -3 | -2 | 1 | -6
Statin myotox sup | 45 | 5 | -5 | 0 | nt
miR-122 sensor | -9 | 251* | 21 | 126* | nt
Yeast UUG start | 8 | -7 | 6 | -9 | nt
Cneo AK release | 0 | 1 | -7 | 0 | nt

6) CCc1cn([C@H]2C[C@H](O)[C@@H](CO)O2)c(=O)[nH]c1=O
7) O=c1[nH]c(=O)n(C2CC(O)C(CO)O2)cc1Br (stereo not drawn)
8) CNC(=O)[C@@H]1CCC(=O)N1
9) Cc1ccc(S(=O)(=O)Nc2ccc3c(c2)CC(=O)N([C@@H](C)CO)C[C@@H](C)[C@@H](CN(C)S(=O)(=O)c2ccc(F)cc2)O3)cc1
10) OCCNc1c2ccccc2nc2ccccc12
compound no. | 6 | 7 | 8 | 9 | 10
N-glyco inh | 0 | 36* | 4 | nt | 66*
Statin myotox sup | -4 | nt | 1 | 4 | nt
miR-122 sensor | 5 | 35 | 0 | -14[16.7 µM] | nt
Yeast UUG start | -11 | nt | -19 | 21 | nt
Cneo AK release | 1 | nt | -1 | 0 | nt

11) C[C@H](NC(=O)[C@@H]1[C@@H](CO)[C@@H]2Cn3c(cccc3=O)[C@H]1N2CCC(F)(F)F)c1ccccc1
12) Cc1onc(-c2c(Cl)cccc2Cl)c1C(=O)N[C@@H]1C(=O)N2[C@@H]1SC(C)(C)[C@@H]2C(=O)O
13) Cc1ccc(C)c(S(=O)(=O)N2CCN(CC(=O)NC(C)c3ccccc3)CC2)c1 (stereo not drawn)
14) C[C@H]1CCCCO[C@H](CN(C)Cc2ccc3c(c2)OCO3)[C@@H](C)CN([C@@H](C)CO)C(=O)c2cc(NC(=O)Nc3cccc4ccccc34)ccc2O1
15) C[C@@H]1CN([C@H](C)CO)C(=O)c2cc(NC(=O)Nc3cccc4ccccc34)ccc2O[C@@H](C)CCCCO[C@@H]1CN(C)Cc1ccc2c(c1)OCO2
compound no. | 11 | 12 | 13 | 14 | 15
N-glyco inh | nt | 31*! | -2 | nt | nt
Statin myotox sup | 1 | 1 | -8 | -385 | ?
miR-122 sensor | nt | -5 | 5 | -30[16.7 µM] | -34[16.7 µM]
Yeast UUG start | nt | -35 | 11 | -7 | 33
Cneo AK release | -4 | 1 | 1 | 1 | 84*

16) C[C@H]1CCCCO[C@H](CN(C)C(=O)Nc2cccc3ccccc23)[C@@H](C)CN([C@@H](C)CO)C(=O)c2cc(NC(=O)Nc3ccc4c(c3)OCO4)ccc2O1
17) C[C@@H]1CCCCO[C@@H](CN(C)C(=O)Nc2ccc3c(c2)OCO3)[C@@H](C)CN([C@H](C)CO)C(=O)c2cc(NC(=O)Nc3cccc4ccccc34)ccc2O1
18) C[C@H](CO)N1C[C@H](C)[C@@H](CN(C)C(=O)Nc2ccc3c(c2)OCO3)OCCCC[C@H](C)Oc2ccc(NC(=O)Nc3cccc4ccccc34)cc2C1=O
19) C[C@H]1CN([C@@H](C)CO)C(=O)c2cccc(NS(C)(=O)=O)c2O[C@H]1CN(C)Cc1ccc(C(=O)O)cc1
20) COCCOC1CCN(C(=O)C2CCC(=O)N(CCc3ccccc3)C2)CC1 (stereo not drawn)
compound no. | 16 | 17 | 18 | 19 | 20
N-glyco inh | nt | nt | nt | nt | 3
Statin myotox sup | 66* | 0 | 19 | 18 | 8
miR-122 sensor | -5[16.7 µM] | 31[16.7 µM] | 8[16.7 µM] | -13[16.7 µM] | 2
Yeast UUG start | -15 | 10 | -7 | -7 | -13
Cneo AK release | -2 | 105* | -1 | -9 | -1

21) C[C@@H]1CN([C@@H](C)CO)C(=O)c2cc(NC(=O)Cn3cnnn3)ccc2O[C@@H]1CN(C)S(=O)(=O)c1ccc(F)cc1
22) Cc1ccc(NC(=O)COC(=O)C2CC(=O)N(Cc3ccccc3)C2)cc1F (stereo not drawn)
23) CCOC(=O)/C=c1\s/c(=C\c2ccc3c(c2)OCCO3)c(=O)n1CC(=O)NCC1CCCO1 (stereo not drawn)
24) NC(=O)c1cccc(S(=O)(=O)N2CCCCC2)c1
25) Nc1cccc2c1C(=O)N(C(=O)c1cccc(S(=O)(=O)N3CCCC3)c1)C2=O
compound no. | 21 | 22 | 23 | 24 | 25
N-glyco inh | nt | 3 | 0 | 1 | -1
Statin myotox sup | -14 | nt | 110* | -1 | 138*
miR-122 sensor | 2[16.7 µM] | nt | 2 | -2 | -3
Yeast UUG start | 0 | nt | 54 | nt | 13
Cneo AK release | -1 | nt | -2 | nt | -2

26) COC(=O)[C@H](CC(C)C)NS(=O)(=O)N[C@@H](CC(C)C)C(=O)OC
27) COC(=O)[C@H](CC(C)C)NS(=O)(=O)c1ccccc1
28) COc1ccc(S(=O)(=O)N[C@@H]2C=C[C@H](CC(=O)NCCc3ccccc3)O[C@H]2CO)cc1
29) C[C@@H](NC(=O)c1ncn2c1c(=O)[nH]c1cccnc12)c1ccccc1
30) C[C@@H](NC(=O)c1ncn2c1c(=O)[nH]c1ccc(Br)cc12)c1ccccc1
compound no. | 26 | 27 | 28 | 29 | 30
N-glyco inh | -1 | 2 | nt | 3 | 33*
Statin myotox sup | 6 | 80* | 10 | 0 | 4
miR-122 sensor | -8 | -2 | nt | 1 | 2
Yeast UUG start | -4 | -22 | -7 | 1 | -6
Cneo AK release | 3 | 0 | -1 | 1 | -1

31) Nc1ccc2c(S(=O)(=O)O)cccc2c1S(=O)(=O)O
32) Nc1cccc2cc(S(=O)(=O)O)ccc12
33) Cc1ccc2[nH]c(CNC(=O)C3CCCCC3)cc2c1
34) CCc1ccc(CN2CCN(C(=O)c3cccc(OC)c3OC)CC2)cc1
35) CCCCNC(=O)c1cc2nc3c(c(C(F)(F)F)n2n1)CCc1ccccc1-3
compound no. | 31 | 32 | 33 | 34 | 35
N-glyco inh | 2 | 1 | -3 | -3 | 2
Statin myotox sup | 102* | 3 | -5 | 91* | 76*
miR-122 sensor | -5 | -5 | 135* | -5 | -6
Yeast UUG start | -29 | -4 | -8 | -10 | -9
Cneo AK release | 3 | 0 | 0 | 1 | 3

Reprinted at random: two records from the list
31) Nc1ccc2c(S(=O)(=O)O)cccc2c1S(=O)(=O)O
4) COc1ccc(NC(C)=O)cc1S(=O)(=O)Nc1ccc(S(=O)(=O)N2CCCCC2)cc1
compound no. | 31 | 4
N-glyco inh | 2 | 1
Statin myotox sup | 102* | 0
miR-122 sensor | -5 | 126*
Yeast UUG start | -29 | -9
Cneo AK release | 3 | 0

The list goes on.
36) CC(C)CNC(=O)c1cc2nc3c(c(C(F)(F)F)n2n1)CCc1ccccc1-3
37) CCC(=O)Nc1ccc2c(c1)C(=O)N(C)[C@H]1CC[C@@H](CC(=O)N3CCc4ccccc4C3)O[C@@H]1CO2
38) CCN(CCCNC(=O)C1CCC(=O)N1C(C)C)c1cccc(C)c1 (stereo not drawn)
39) CCN(CCCNC(=O)C1CCCN(S(=O)(=O)CC)C1)c1cccc(C)c1 (stereo not drawn)
40) C[C@@H]1CN([C@@H](C)CO)C(=O)Cc2cc(NC(=O)Cc3cn(C)c4ccccc34)ccc2O[C@H]1CN(C)Cc1ccc(Oc2ccccc2)cc1
41) C[C@H](CO)N1C[C@H](C)[C@@H](CN(C)Cc2ccc(C(F)(F)F)cc2)Oc2ccc(NC(=O)Cc3cn(C)c4ccccc34)cc2CC1=O
42) C[C@H](CO)N1C[C@H](C)[C@@H](CN(C)Cc2ccc(C(F)(F)F)cc2)Oc2ccc(NC(=O)Cc3ccccc3)cc2CC1=O
43) COc1ccc(CN(C)C[C@@H]2Oc3ccc(NC(=O)Cc4cn(C)c5ccccc45)cc3CC(=O)N([C@H](C)CO)C[C@H]2C)cc1
compound no. | 36 | 37 | 38 | 39 | 40 | 41 | 42 | 43
N-glyco inh | 2 | nt | 1 | 3 | nt | nt | nt | nt
Statin myotox sup | -18 | -4 | 126* | -5 | 76* | 115* | 116* | 81*
miR-122 sensor | 5 | 4[16.7 µM] | 8 | 0 | -7[16.7 µM] | -3[16.7 µM] | 3[16.7 µM] | -5[16.7 µM]
Yeast UUG start | -6 | -3 | -5 | 3 | 21 | 0 | nt | 0
Cneo AK release | 0 | -1 | 0 | 2 | 0 | 3 | 11 | -1
